Literature values as cited in PubChem BioAssay AID977611.
pKd: −log10 of the molar value.

Experiments:
Test in all cases: PubChem AID 977611
[1] = target: interferon-inducible gtpase; settings: PDB protein-ligand complexes, literature Kd, protein: interferon-inducible gtpase
[2] = target: elongation factor tu (ef-tu); settings: PDB protein-ligand complexes, literature Kd; protein: elongation factor tu (ef-tu); PDB entry 1D2E
elongation factor 2 = settings: PDB protein-ligand complexes, literature Kd; protein: elongation factor 2; PDB entry 1U2R
[3] = target: adp-ribosylation factor-like protein 3; settings: PDB protein-ligand complexes, literature Kd; protein: adp-ribosylation factor-like protein 3; PDB entry 1FZQ
[4] = target: eukaryotic peptide chain release factor gtp; settings: PDB protein-ligand complexes, literature Kd; protein: eukaryotic peptide chain release factor gtp; PDB entry 1R5N
[5] = target: guanine nucleotide-binding protein g(i), alpha-; settings: PDB protein-ligand complexes, literature Kd; protein: guanine nucleotide-binding protein g(i), alpha-; PDB entry 2G83
1RYF A = settings: PDB protein-ligand complexes, literature Kd; PDB entry 1RYF
elongation factor g = settings: PDB protein-ligand complexes, literature Kd; protein: elongation factor g; PDB entry 1DAR
[6] = target: STEROID DELTA-ISOMERASE(P39A); settings: PDB protein-ligand complexes, literature Kd; protein: STEROID DELTA-ISOMERASE(P39A); PDB entry 1OGZ
adam 17 = settings: PDB protein-ligand complexes, literature Kd; protein: adam 17; PDB entry 2FV5
shikimate kinase = settings: PDB protein-ligand complexes, literature Kd; protein: shikimate kinase; PDB entry 1WE2
kes1 protein = settings: PDB protein-ligand complexes, literature Kd; protein: kes1 protein; PDB entry 1ZHY
galectin-2 = settings: PDB protein-ligand complexes, literature Kd; protein: galectin-2; PDB entry 1ULG
[7] = target: sarcoplasmic/endoplasmic reticulum calcium; settings: PDB protein-ligand complexes, literature Kd; protein: sarcoplasmic/endoplasmic reticulum calcium; PDB entry 2AGV
[8] = target: 3,4 PCD from acinetobacter SP. ADP1 MUTANT R457S; settings: PDB protein-ligand complexes, literature Kd; protein: 3,4 PCD from acinetobacter SP. ADP1 MUTANT R457S; PDB entry 2BUV
[9] = target: protocatechuate 3,4-dioxygenase; settings: PDB protein-ligand complexes, literature Kd; protein: protocatechuate 3,4-dioxygenase; PDB entry 1YKP
[10] = target: macrophage metalloelastase (mmp-12); settings: PDB protein-ligand complexes, literature Kd; protein: macrophage metalloelastase (mmp-12); PDB entry 1Z3J
[11] = target: Macrophage metalloelastase(F171D); settings: PDB protein-ligand complexes, literature Kd; protein: Macrophage metalloelastase(F171D); PDB entry 1RMZ
[12] = target: 2,2-dialkylglycine decarboxylase; settings: PDB protein-ligand complexes, literature Kd; protein: 2,2-dialkylglycine decarboxylase; PDB entry 1ZC9
streptavidin = settings: PDB protein-ligand complexes, literature Kd; protein: streptavidin; PDB entry 2IZL
[13] = target: immunoglobulin igg1 lambda light chain; settings: PDB protein-ligand complexes, literature Kd; protein: immunoglobulin igg1 lambda light chain; PDB entry 2FL5
[14] = target: H. SALINARUM DODECIN E45A MUTANT; settings: PDB protein-ligand complexes, literature Kd; protein: H. SALINARUM DODECIN E45A MUTANT; PDB entry 2VX9
[15] = target: 6,7-dimethyl-8-ribityllumazine synthase; settings: PDB protein-ligand complexes, literature Kd; protein: 6,7-dimethyl-8-ribityllumazine synthase; PDB entry 1KYV
H.HALOPHILA DODECIN = settings: PDB protein-ligand complexes, literature Kd; protein: H.HALOPHILA DODECIN; PDB entry 2VXA
apolipoprotein = settings: PDB protein-ligand complexes, literature Kd; protein: apolipoprotein; PDB entry 3KIV
[16] = target: Cellular retinoic acid-binding protein 2; settings: PDB protein-ligand complexes, literature Kd; protein: Cellular retinoic acid-binding protein 2; PDB entry 2G79
[17] = target: ribulose-1,5 bisphosphate carboxylase/oxygenase; settings: PDB protein-ligand complexes, literature Kd; protein: ribulose-1,5 bisphosphate carboxylase/oxygenase; PDB entry 2H2J
[18] = target: adenine-n6-dna-methyltransferase taqi; settings: PDB protein-ligand complexes, literature Kd; protein: adenine-n6-dna-methyltransferase taqi; PDB entry 1AQJ
[19] = target: glutamate receptor, ionotropic kainate 1; settings: PDB protein-ligand complexes, literature Kd; protein: glutamate receptor, ionotropic kainate 1; PDB entry 2F34
[20] = target: calmodulin-sensitive adenylate cyclase; settings: PDB protein-ligand complexes, literature Kd; protein: calmodulin-sensitive adenylate cyclase; PDB entry 1XFV
[21] = target: apoptosis regulator bcl-x; settings: PDB protein-ligand complexes, literature Kd; protein: apoptosis regulator bcl-x; PDB entry 1YSG
agglutinin alpha chain = settings: PDB protein-ligand complexes, literature Kd; protein: agglutinin alpha chain; PDB entry 1UGY
dihydrofolate reductase = settings: PDB protein-ligand complexes, literature Kd; protein: dihydrofolate reductase; PDB entry 2D0K
[22] = target: Transitional endoplasmic reticulum ATPase, R95G mutant; settings: PDB protein-ligand complexes, literature Kd; protein: Transitional endoplasmic reticulum ATPase, R95G mutant; PDB entry 3HU1
[23] = target: Transitional endoplasmic reticulum ATPase, R155H mutant; settings: PDB protein-ligand complexes, literature Kd; protein: Transitional endoplasmic reticulum ATPase, R155H mutant; PDB entry 3HU3
[24] = target: dna polymerase iii, delta subunit; settings: PDB protein-ligand complexes, literature Kd; protein: dna polymerase iii, delta subunit; PDB entry 1XXH
[25] = target: dna polymerase iii, gamma subunit; settings: PDB protein-ligand complexes, literature Kd; protein: dna polymerase iii, gamma subunit; PDB entry 1NJF
[26] = target: Transitional endoplasmic reticulum ATPase, R86A mutant; settings: PDB protein-ligand complexes, literature Kd; protein: Transitional endoplasmic reticulum ATPase, R86A mutant; PDB entry 3HU2
Mevalonate kinase = settings: PDB protein-ligand complexes, literature Kd; protein: Mevalonate kinase; PDB entry 2OI2
immunoglobulin = settings: PDB protein-ligand complexes, literature Kd; protein: immunoglobulin; PDB entry 2PCP
citrate synthase = settings: PDB protein-ligand complexes, literature Kd; protein: citrate synthase; PDB entry 4CTS
[27] = target: potassium-transporting atpase b chain; settings: PDB protein-ligand complexes, literature Kd; protein: potassium-transporting atpase b chain; PDB entry 2A29
[28] = target: Tyrosine-protein kinase SYK; settings: PDB protein-ligand complexes, literature Kd, protein: Tyrosine-protein kinase SYK
Pantothenate kinase = settings: PDB protein-ligand complexes, literature Kd; protein: Pantothenate kinase; PDB entry 2EWS
[29] = target: Mitogen-activated protein kinase 1; settings: PDB protein-ligand complexes, literature Kd; protein: Mitogen-activated protein kinase 1; PDB entry 3TEI

For `Nc1nc2c(ncn2[C@@H]2O[C@H](COP(=O)(O)OP(=O)(O)O)[C@@H](O)[C@H]2O)c(=O)[nH]1`, the pKd ([1]; PDB entry 1TPZ) is given as 6.19, the pKd ([1]; PDB entry 1TQ4) is given as 6.19 and the pKd [2] is given as 6.00. For the same molecule, the pKd (elongation factor 2) was 5.41, the pKd [3] was 7.62 and the pKd [4] was 5.42. The pKd [5] was 5.92, the pKd (1RYF A) was 8.80 and the pKd (elongation factor g) was 4.96.

In the case of `C[C@]12CCc3c(ccc4cc(O)ccc34)[C@@H]1CCC2=O`, the pKd [6] is listed as 5.85.

In the case of `Cc1cc(COc2ccc([C@]3(C)CCN([C@H](C)C(=O)NO)C3=O)cc2)c2ccccc2n1`, the pKd (adam 17) is listed as greater than 11.70.

In the case of `O=C(O)C1=C[C@@H](O)[C@@H](O)[C@H](O)C1`, the pKd (shikimate kinase) is listed as 4.36.

In the case of `CC(C)CCC[C@@H](C)[C@H]1CC[C@H]2[C@@H]3CC=C4C[C@@H](O)CC[C@]4(C)[C@H]3CC[C@]12C`, the pKd (kes1 protein) is listed as 6.52.

For `CC(=O)N[C@@H]1[C@@H](O[C@@H]2O[C@H](CO)[C@H](O)[C@H](O)[C@H]2O)[C@@H](O)[C@H](CO)O[C@H]1O`, the pKd (galectin-2) is given as 4.21.

In the case of `CC(C)(C)c1cc(O)c(C(C)(C)C)cc1O`, the pKd [7] is listed as 7.70.

In the case of `O=C(O)c1ccc(O)c(O)c1`, the pKd [8] is listed as 4.00 and the pKd [9] is listed as 2.96.

For `COc1ccc(S(=O)(=O)N(CC(=O)NO)CC(C)C)cc1`, the pKd [10] is listed as 8.00 and the pKd [11] is listed as 8.00.

In the case of `Cc1ncc(COP(=O)(O)O)c(CN)c1O`, the pKd [12] is listed as 3.22.

In the case of `NC1=N[C@H]2[C@H](CS[C@H]2CCCCC(=O)O)N1`, the pKd (streptavidin) is given as 6.00.

For `Cc1cc2nc3c(=O)[nH]c(=O)nc-3n(C[C@H](O)[C@H](O)[C@H](O)CO)c2cc1C`, the pKd [13] is given as 8.74, the pKd [14] is given as 7.44 and the pKd [15] is given as 5.92. The pKd (H.HALOPHILA DODECIN) was 5.60.

For `NCCCCCC(=O)O`, the pKd (apolipoprotein) is listed as 4.70.

For `CC1=C(/C=C/C(C)=C/C=C/C(C)=C/C=O)C(C)(C)CCC1`, the pKd [16] is given as 6.92.

In the case of `Nc1ncnc2c1ncn2[C@@H]1O[C@H](C[C@@H](N)CC[C@H](N)C(=O)O)[C@@H](O)[C@H]1O`, the pKd [17] is listed as 5.38 and the pKd [18] is listed as 6.47.

For `Cc1cn(C[C@H](N)C(=O)O)c(=O)n(Cc2ccsc2C(=O)O)c1=O`, the pKd [19] is listed as 6.89.

For `Nc1ncnc2c1ncn2[C@@H]1O[C@H](COP(=O)(O)OP(=O)(O)OP(=O)(O)O)C[C@H]1O`, the pKd [20] is given as 3.89.

In the case of `O=C(O)c1ccc(-c2ccc(F)cc2)cc1`, the pKd [21] is listed as 3.52.

In the case of `OC[C@H]1O[C@H](OC[C@H]2O[C@@H](O)[C@H](O)[C@@H](O)[C@@H]2O)[C@H](O)[C@@H](O)[C@H]1O`, the pKd (agglutinin alpha chain) is listed as 3.72.

In the case of `Nc1nc2ncc(CNc3ccc(C(=O)N[C@@H](CCC(=O)O)C(=O)O)cc3)nc2c(=O)[nH]1`, the pKd (dihydrofolate reductase) is given as 5.02.

In the case of `Nc1ncnc2c1ncn2[C@@H]1O[C@H](COP(=O)(O)OP(=O)(O)OP(O)(O)=S)[C@@H](O)[C@H]1O`, the pKd [22] is given as 6.89, the pKd [23] is given as 6.89 and the pKd [24] is given as 6.11. For the same molecule, the pKd [25] was 5.99 and the pKd [26] was 7.22.

For `C[C@@](O)(CCOP(=O)(O)OP(=O)(O)O)CC(=O)O`, the pKd (Mevalonate kinase) is given as 6.30.

In the case of `c1ccc(C2(N3CCCCC3)CCCCC2)cc1`, the pKd (immunoglobulin) is given as 8.70.

In the case of `O=C(O)CC(=O)C(=O)O`, the pKd (citrate synthase) is listed as greater than 5.00.

For `Nc1ncnc2c1ncn2[C@@H]1O[C@H](COP(=O)(O)OP(=O)(O)NP(=O)(O)O)[C@@H](O)[C@H]1O`, the pKd [27] is listed as 2.85, the pKd ([28]; PDB entry 4FL1) is listed as 3.28 and the pKd ([28]; PDB entry 4FL2) is listed as 3.66. For the same molecule, the pKd ([28]; PDB entry 4FL3) was 3.82, the pKd (Pantothenate kinase) was 6.62 and the pKd [29] was 6.30.
